IC50 data for one molecule are collected here from patent publication US20240182465A1 (GENFLEET THERAPEUTICS (SHANGHAI) INC., priority 2021, published 2024).

The chains behind the UniProt entries cited, without tags or fusion partners. Residues count along the entry.
UniProt Q92918, 1-346 limits assumed: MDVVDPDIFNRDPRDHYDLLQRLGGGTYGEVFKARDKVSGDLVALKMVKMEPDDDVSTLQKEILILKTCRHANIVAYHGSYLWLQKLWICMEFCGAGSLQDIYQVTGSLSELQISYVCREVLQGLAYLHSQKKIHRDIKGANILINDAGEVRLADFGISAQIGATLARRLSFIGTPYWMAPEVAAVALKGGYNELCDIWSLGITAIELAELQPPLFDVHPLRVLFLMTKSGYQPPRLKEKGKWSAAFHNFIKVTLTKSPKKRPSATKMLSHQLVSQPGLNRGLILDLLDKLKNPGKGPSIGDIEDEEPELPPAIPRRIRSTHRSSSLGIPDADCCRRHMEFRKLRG
UniProt Q92918, whole entry: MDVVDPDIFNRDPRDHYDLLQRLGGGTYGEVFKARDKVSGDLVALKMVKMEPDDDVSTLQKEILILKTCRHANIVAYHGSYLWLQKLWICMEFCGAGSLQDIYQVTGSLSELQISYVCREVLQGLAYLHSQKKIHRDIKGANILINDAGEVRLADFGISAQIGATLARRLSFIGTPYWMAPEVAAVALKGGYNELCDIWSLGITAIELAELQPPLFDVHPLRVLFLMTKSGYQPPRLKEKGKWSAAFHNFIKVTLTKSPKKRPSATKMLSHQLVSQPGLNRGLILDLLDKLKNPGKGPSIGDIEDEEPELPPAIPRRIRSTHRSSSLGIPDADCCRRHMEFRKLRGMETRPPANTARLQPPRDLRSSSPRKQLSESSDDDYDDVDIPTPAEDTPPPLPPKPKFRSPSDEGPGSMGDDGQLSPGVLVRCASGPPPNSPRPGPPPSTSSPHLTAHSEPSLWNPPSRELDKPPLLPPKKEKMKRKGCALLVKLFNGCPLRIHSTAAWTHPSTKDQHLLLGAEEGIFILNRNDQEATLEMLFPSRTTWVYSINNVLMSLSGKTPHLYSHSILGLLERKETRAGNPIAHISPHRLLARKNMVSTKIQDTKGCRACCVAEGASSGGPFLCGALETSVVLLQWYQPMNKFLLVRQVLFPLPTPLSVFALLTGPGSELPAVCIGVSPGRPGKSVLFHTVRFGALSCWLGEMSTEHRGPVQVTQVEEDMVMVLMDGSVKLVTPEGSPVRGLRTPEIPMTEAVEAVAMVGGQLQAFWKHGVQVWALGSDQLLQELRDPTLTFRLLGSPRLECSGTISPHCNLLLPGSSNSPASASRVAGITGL

Broadly, the IC50 is the point on the concentration scale where inhibition reaches its midpoint. High values mean weaker potency, low ones greater potency.

For assay [1], the target named is T1, HPK1 (Homo sapiens, UniProt Q92918). Kind of assay: HPK1 kinase activity assay (ADP-Glo). The note with it: HPK1 Kinase activity IC50 (nM), 1 nM HPK1, 10 μM ATP, 0.1 μg/μL MBP. (In general: ADP-Glo first removes unused ATP, then detects ADP through luciferase.)
Assay [2] has as its target T1, HPK1. Briefly: SLP76 phosphorylation assay (intracellular HPK1 inhibitory activity, p-SLP76 Ser376 sandwich ELISA). The conditions noted are these: p-SLP76 IC50(nM), Jurkat, Clone E6-1 cells; 1 h compound pre-incubation, anti-CD3 beads stimulation 20 min; SLP76 phosphorylation at S376. (In general: An ELISA detects its analyte on a solid surface through an enzyme-linked reagent.)

`Cc1c[nH]c2ncc(-c3cc4c(c([C@@H]5CCCN5)c3)CN(C(=O)C(O)(C(F)(F)F)C(F)(F)F)CC4)cc12` [Compound Z297, (S)-3,3,3-trifluoro-2-hydroxy-1-(6-(3-methyl-1H-pyrrolo[2,3-b]pyridin-5-yl)-8-(pyrrolidin-2-yl)-3,4-dihydroisoquinolin-2(1H)-yl)-2-(trifluoromethyl)propan-1-one]: the values for the IC50 at HPK1 [1] and against HPK1 [2] were 2.37 nM and 1010 nM, respectively.
